Biological target: SWI/SNF-related matrix-associated actin-dependent regulator of chromatin subfamily A member 4 (Homo sapiens, UniProt P51532)
Experiment: biochemical

Sequences of proteins named here, by UniProt entry; tags and fusion partners are left off.
UniProt P51532, whole entry: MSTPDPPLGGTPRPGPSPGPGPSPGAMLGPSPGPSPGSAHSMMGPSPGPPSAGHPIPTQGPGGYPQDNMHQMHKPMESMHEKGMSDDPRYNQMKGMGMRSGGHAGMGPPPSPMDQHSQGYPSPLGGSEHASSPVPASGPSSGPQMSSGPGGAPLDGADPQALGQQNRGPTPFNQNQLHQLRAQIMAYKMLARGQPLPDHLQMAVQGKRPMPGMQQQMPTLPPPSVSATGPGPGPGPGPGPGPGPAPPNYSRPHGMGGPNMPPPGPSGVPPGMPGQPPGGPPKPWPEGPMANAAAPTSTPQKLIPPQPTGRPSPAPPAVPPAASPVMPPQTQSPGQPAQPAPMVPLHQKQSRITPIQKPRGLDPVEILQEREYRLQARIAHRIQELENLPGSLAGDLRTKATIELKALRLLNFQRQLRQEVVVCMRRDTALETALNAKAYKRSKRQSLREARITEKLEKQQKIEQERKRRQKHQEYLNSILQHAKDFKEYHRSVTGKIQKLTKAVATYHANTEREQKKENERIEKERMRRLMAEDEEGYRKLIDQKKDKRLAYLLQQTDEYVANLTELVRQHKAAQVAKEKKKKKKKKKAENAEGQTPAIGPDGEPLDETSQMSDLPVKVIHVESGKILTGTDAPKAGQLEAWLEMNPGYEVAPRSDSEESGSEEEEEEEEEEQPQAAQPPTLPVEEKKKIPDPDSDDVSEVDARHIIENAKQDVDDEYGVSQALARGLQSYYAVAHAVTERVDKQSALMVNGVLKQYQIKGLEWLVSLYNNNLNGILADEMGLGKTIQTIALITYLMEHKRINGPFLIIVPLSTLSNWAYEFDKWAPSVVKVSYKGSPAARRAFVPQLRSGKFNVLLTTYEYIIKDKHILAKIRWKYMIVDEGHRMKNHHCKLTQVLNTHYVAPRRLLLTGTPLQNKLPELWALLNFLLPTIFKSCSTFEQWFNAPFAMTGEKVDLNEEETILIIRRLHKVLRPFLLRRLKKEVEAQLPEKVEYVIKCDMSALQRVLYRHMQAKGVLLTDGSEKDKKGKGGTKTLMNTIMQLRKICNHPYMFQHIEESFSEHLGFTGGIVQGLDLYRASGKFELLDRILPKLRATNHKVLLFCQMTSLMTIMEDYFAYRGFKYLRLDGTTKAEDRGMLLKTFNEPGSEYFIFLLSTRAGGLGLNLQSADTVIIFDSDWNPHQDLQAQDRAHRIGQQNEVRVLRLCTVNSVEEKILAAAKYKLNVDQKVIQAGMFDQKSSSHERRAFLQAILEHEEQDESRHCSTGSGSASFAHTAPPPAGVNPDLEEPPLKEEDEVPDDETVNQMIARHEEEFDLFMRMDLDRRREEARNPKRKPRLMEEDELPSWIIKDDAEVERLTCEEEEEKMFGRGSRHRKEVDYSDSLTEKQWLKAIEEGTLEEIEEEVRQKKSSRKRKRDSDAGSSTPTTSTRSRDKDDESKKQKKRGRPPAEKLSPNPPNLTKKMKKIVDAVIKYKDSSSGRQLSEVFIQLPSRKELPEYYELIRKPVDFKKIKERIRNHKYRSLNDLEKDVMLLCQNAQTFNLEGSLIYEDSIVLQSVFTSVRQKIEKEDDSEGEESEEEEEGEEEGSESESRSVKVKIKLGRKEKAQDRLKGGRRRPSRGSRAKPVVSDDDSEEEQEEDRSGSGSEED

Q: With `CCC(/C=C1\CCn2c1nc(=O)c1c(Cl)cccc12)CC` as the compound, how does the Kd read?
A: 2030 nM
